Experimental data from patent US9161990B2, “Hydrochloride salts of a glycopeptide-cephalosporin antbiotic compond” (THERAVANCE BIOPHARMA ANTIBIOTICS IP, LLC, priority 2013, dated 2015).
Structures can show the parent of a compound that is named as a salt.

What was measured:
[1] = Storage stability of hydrochloride salts in a lyophilized composition containing sucrose and glycine (purity by HPLC); assay type: physicochemical
Protocol: (§1) Test samples were assayed for 26-[[[3-[[(Z)-[1-(2-amino-5-chloro-4-thiazolyl)-2-[[(6R,7R)-2-carboxy-8-oxo-3-(pyridiniomethyl)-5-thia-1-azabicyclo[4.2.0]-oct-2-en-7-yl]amino]-2-oxoethylidene]amino]oxy]propyl]amino]carbonyl]-26-decarboxyvancomycin and its degradation products using an HPLC system with a photodiode array detector (Agilent 1100 or 1200 HPLC System; Agilent Technologies Inc., Santa Clara, Calif. 95051) controlled with chromatography data software (Empower Software, Waters Corporation, Milford, Mass. 01757). All solvents were HPLC grade and were purchased from Honeywell Burdick & Jackson (Muskegon, Mich. 49442). Phosphoric acid (85% w/w) and sodium dihydrogen phosphate were HPLC grade and were purchased from Fluka (Sigma-Aldrich, St. Louis, Mo. 63103). All reagents were used without further purification.
(§2) Test samples were filtered through a 0.2 μm polyvinylidene fluoride (PVDF) filter before analysis and the first 1 mL was discarded.
(§3) Test sample purity was determined based on the integrated peak area (area-under-the-curve or AUC) for the compound as a percentage of all integrated peaks. The concentration (assay value) of the compound in a test sample was determined by comparison with a reference standard.
(§4) Two racks containing six vials of each type of stability sample (Examples 12A-F; 6×6=36 vials) were prepared. One rack was stored protected from light in a drawer at room temperature and the other rack was stored in a refrigerator at 2 to 8° C. A representative vial of each type of stability sample was analyzed by HPLC after storage for 1, 3, 6 and 12 months to determine purity.

[2] = Storage stability of lyophilized hydrochloride salts (purity by HPLC); assay type: physicochemical
Protocol: as §1, §2, §3, §4

[3] = refrigerated temperature (2 to 8° C.), 6 months, dihydrochloride
[4] = refrigerated temperature (2 to 8° C.), time 0 months, monohydrochloride
[5] = room temperature, time 0 months, monohydrochloride

Which results are given for CN[C@H](CC(C)C)C(=O)NC1C(=O)N[C@@H](CC(N)=O)C(=O)N[C@H]2C(=O)N[C@H]3C(=O)N[C@H](C(=O)N[C@H](C(=O)NCCCO/N=C(\C(=O)N[C@@H]4C(=O)N5C(C(=O)[O-])=C(C[n+]6ccccc6)CS[C@H]45)c4nc(N)sc4Cl)c4cc(O)cc(O)c4-c4cc3ccc4O)[C@H](O)c3ccc(c(Cl)c3)Oc3cc2cc(c3O[C@@H]2O[C@H](CO)[C@@H](O)[C@H](O)[C@H]2O[C@H]2C[C@](C)(N)[C@H](O)[C@H](C)O2)Oc2ccc(cc2Cl)[C@H]1O (stereo partly drawn) [Dihydrochloride, 26-[[[3-[[(Z)-[1-(2-amino-5-chloro-4-thiazolyl)-2-[[(6R,7R)-2-carboxy-8-oxo-3-(pyridiniomethyl)-5-thia-1-azabicyclo[4.2.0]oct-2-en-7-yl]amino]-2-oxoethylidene]amino]oxy]propyl]amino]carbonyl]-26-decarboxyvancomycin dihydrochloride]?
Purity (HPLC area percent) ([1]; refrigerated temperature (2 to 8° C.), 1 month, dihydrochloride): 89.8%; Purity (HPLC area percent) [1, 3]: 90.8%; Purity (HPLC area percent) ([1]; refrigerated temperature (2 to 8° C.), time 0 months, dihydrochloride): 90.6%; Purity (HPLC area percent) ([1]; room temperature, 1 month, dihydrochloride): 89.8%; Purity (HPLC area percent) ([1]; room temperature, 3 months, dihydrochloride): 87.7%; Purity (HPLC area percent) ([1]; room temperature, 6 months, dihydrochloride): 90.8%; Purity (HPLC area percent) ([1]; room temperature, 12 months, dihydrochloride): 83.8%; Purity (HPLC area percent) ([1]; room temperature, time 0 months, dihydrochloride): 90.6%; Purity (HPLC area percent) [2, 3]: 90.8%

Which results are given for CN[C@H](CC(C)C)C(=O)N[C@H]1C(=O)N[C@@H](CC(N)=O)C(=O)N[C@H]2C(=O)N[C@H]3C(=O)N[C@H](C(=O)N[C@H](C(=O)NCCCO/N=C(\C(=O)N[C@@H]4C(=O)N5C(C(=O)[O-])=C(C[n+]6ccccc6)CS[C@H]45)c4nc(N)sc4Cl)c4cc(O)cc(O)c4-c4cc3ccc4O)[C@H](O)c3ccc(c(Cl)c3)Oc3cc2cc(c3O[C@@H]2O[C@H](CO)[C@@H](O)[C@H](O)[C@H]2O[C@H]2C[C@](C)(N)[C@H](O)[C@H](C)O2)Oc2ccc(cc2Cl)[C@H]1O [Monohydrochloride, 26-[[[3-[[(Z)-[1-(2-amino-5-chloro-4-thiazolyl)-2-[[(6R,7R)-2-carboxy-8-oxo-3-(pyridiniomethyl)-5-thia-1-azabicyclo[4.2.0]oct-2-en-7-yl]amino]-2-oxoethylidene]amino]oxy]propyl]amino]carbonyl]-26-decarboxyvancomycin monohydrochloride]?
Purity (HPLC area percent) [1, 4]: 90.4%; Purity (HPLC area percent) ([1]; room temperature, 3 months, monohydrochloride): 86.9%; Purity (HPLC area percent) ([1]; room temperature, 6 months, monohydrochloride): 87.9%; Purity (HPLC area percent) ([1]; room temperature, 12 months, monohydrochloride): 81.5%; Purity (HPLC area percent) [1, 5]: 90.4%; Purity (HPLC area percent) ([2]; refrigerated temperature (2 to 8° C.), 6 months, monohydrochloride): 90.4%; Purity (HPLC area percent) [2, 4]: 90.4%; Purity (HPLC area percent) ([2]; room temperature, time 0 months, listed as Mono HCl, monohydrochloride): 90.4%; Purity (HPLC area percent) [2, 5]: 90.4%

For CN[C@H](CC(C)C)C(=O)NC1C(=O)N[C@@H](CC(N)=O)C(=O)N[C@H]2C(=O)N[C@H]3C(=O)N[C@H](C(=O)N[C@H](C(=O)NCCCO/N=C(\C(=O)N[C@@H]4C(=O)N5C(C(=O)[O-])=C(C[n+]6ccccc6)CS[C@H]45)c4nc(N)sc4Cl)c4cc(O)cc(O)c4-c4cc3ccc4O)[C@H](O)c3ccc(c(Cl)c3)Oc3cc2cc(c3O[C@@H]2O[C@H](CO)[C@@H](O)[C@H](O)[C@H]2O[C@H]2C[C@](C)(N)[C@H](O)[C@H](C)O2)Oc2ccc(cc2Cl)[C@H]1O (stereo partly drawn) [Trihydrochloride, 26-[[[3-[[(Z)-[1-(2-Amino-5-chloro-4-thiazolyl)-2-[[(6R,7R)-2-carboxy-8-oxo-3-(pyridiniomethyl)-5-thia-1-azabicyclo[4.2.0]oct-2-en-7-yl]amino]-2-oxoethylidene]amino]oxy]propyl]amino]carbonyl]-26-decarboxyvancomycin Trihydrochloride, reference compound], which “Purity (HPLC area percent)” value ([1]; refrigerated temperature (2 to 8° C.), 3 months, Trihydrochloride) is on record?
The value was 90.8%.
